The target in assay [1] is T1, PAD3 (Homo sapiens, UniProt Q9ULW8).
T1 sequence (Q9ULW8 1-664): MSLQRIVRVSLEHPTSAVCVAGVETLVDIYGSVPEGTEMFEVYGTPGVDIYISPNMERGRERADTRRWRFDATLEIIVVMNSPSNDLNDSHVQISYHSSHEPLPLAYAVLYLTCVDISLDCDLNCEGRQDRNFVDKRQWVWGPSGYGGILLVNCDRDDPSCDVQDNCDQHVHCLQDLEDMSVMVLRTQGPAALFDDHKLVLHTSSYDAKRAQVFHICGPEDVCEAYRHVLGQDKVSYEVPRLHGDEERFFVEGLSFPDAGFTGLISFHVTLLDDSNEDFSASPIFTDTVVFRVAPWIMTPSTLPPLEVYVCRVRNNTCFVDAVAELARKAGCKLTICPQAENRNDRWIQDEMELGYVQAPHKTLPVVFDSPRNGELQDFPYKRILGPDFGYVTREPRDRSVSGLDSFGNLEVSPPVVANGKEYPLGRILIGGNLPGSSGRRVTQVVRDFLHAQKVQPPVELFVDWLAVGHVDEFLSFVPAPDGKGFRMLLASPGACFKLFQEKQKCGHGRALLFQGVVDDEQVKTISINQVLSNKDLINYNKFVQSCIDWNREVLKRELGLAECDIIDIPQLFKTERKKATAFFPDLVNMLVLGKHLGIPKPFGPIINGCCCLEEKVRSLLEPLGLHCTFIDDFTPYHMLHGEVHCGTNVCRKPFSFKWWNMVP
The settings on record: PAD4 over PAD3, relative values of kinact/KI.

Sequences of proteins named here, by UniProt entry; tags and fusion partners are left off.
UniProt Q9Y2J8, whole entry: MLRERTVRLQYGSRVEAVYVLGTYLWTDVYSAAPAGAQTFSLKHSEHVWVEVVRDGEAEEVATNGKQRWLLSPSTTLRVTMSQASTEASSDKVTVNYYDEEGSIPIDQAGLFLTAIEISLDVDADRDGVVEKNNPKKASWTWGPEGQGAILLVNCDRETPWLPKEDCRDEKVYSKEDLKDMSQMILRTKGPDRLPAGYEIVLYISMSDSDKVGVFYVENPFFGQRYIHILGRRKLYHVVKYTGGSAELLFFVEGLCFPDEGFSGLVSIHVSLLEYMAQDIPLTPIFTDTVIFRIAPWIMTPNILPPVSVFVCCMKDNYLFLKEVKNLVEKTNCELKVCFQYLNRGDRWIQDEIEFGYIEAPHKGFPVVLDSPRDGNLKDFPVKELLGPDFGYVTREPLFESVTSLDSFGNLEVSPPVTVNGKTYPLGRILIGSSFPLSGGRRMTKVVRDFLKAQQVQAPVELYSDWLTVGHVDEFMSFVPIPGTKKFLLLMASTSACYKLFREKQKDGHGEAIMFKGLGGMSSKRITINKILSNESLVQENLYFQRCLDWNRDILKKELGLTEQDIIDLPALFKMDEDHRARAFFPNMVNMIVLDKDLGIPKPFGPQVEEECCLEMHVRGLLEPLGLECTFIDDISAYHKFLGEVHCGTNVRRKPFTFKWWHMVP
UniProt Q9UM07, whole entry: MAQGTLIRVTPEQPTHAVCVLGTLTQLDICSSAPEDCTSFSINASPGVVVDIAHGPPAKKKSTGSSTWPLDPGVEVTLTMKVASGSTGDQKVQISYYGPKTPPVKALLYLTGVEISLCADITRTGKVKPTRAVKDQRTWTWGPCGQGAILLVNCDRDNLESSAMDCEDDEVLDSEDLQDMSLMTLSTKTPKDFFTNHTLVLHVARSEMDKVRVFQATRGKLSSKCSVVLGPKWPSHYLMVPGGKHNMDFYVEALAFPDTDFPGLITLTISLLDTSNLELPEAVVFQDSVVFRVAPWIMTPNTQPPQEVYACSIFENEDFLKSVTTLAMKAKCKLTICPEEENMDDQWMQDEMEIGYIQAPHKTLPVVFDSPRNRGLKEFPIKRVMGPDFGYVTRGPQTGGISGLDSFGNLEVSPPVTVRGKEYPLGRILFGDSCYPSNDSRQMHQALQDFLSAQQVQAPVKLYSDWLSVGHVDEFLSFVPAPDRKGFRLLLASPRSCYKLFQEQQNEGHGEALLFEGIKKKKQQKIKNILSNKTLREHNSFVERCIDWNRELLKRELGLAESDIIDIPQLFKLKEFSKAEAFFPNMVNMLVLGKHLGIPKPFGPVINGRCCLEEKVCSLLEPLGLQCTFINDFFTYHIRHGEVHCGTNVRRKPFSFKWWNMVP

The target in another assay is PAD2 (Homo sapiens, UniProt Q9Y2J8). In words: biochemical.
The target of assay [2] is T1, PAD3. In words: biochemical.
A further assay addresses PAD4 (Homo sapiens, UniProt Q9UM07). Briefly: PAD4 inhibition/inactivation, residual activity measured with BAEE. The assay is classed as biochemical.
The next assay deals with T2, PAD1 (Homo sapiens, UniProt Q9ULC6).
T2 sequence (Q9ULC6 1-663): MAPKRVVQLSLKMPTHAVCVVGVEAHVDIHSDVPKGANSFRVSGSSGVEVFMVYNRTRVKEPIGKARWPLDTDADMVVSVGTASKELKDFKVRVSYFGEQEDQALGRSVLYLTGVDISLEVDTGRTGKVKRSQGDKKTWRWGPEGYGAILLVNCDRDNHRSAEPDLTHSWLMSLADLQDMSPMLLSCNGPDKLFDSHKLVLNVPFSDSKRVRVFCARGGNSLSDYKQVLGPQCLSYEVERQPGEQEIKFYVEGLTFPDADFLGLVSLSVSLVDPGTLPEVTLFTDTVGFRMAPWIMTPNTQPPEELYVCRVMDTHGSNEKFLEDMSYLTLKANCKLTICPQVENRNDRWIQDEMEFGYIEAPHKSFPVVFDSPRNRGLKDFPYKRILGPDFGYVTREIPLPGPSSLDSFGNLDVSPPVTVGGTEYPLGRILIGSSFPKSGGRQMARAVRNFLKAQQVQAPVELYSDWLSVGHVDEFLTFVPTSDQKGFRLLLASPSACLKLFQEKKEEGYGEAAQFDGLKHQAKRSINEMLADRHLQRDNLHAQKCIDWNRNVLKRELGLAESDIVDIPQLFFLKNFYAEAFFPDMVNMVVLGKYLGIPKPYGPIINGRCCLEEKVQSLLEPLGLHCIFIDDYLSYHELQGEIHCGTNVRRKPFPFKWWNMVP
Briefly: PAD1 inhibition/inactivation, residual activity measured with BAEE.

For the molecule `COC1=C(N)C(=O)c2nc(-c3nc(C(=O)O)c(C)c(-c4ccc(OC)c(OC)c4O)c3N)ccc2C1=O` [NIH6, streptonigrin], the Fold selectivity at PAD3 [1] is on record as 126 fold; at PAD1 (PAD4 over PAD1, relative values of kinact/KI) it was 119 fold. Further, the kinact/KI at PAD2 was 200 M⁻¹ s⁻¹; at PAD3 [2] it was 58.3 M⁻¹ s⁻¹; on PAD4, 7330 M⁻¹ s⁻¹; at PAD1 it was 61.7 M⁻¹ s⁻¹. On PAD4, the kinact is 0.0617 s⁻¹.

Values taken from article PMC2943038 (Chemical communications (Cambridge, England), 2010).
